The test concerns twelve selected human pancreatic cancer cell lines. As to conditions: 2-D, HUP-T3 vs HPAC. The source says: PAXF 546L, PAXF 1986L, PAXF 1998L, PAXF 2005L and PAXF 2059L were established at Oncotest from the corresponding human patient derived xenograft. CAPAN-2, HUP-T3 and PA-TU-8902 were purchased from DSMZ (Braunschweig, Germany). PANC-1 was purchased from CLS Cell Line Services GmbH (Eppelheim, Germany). BxPC-3, HPAC and MIA-Pa-Ca-2 were purchased from ATCC (Rockville, Md., USA). Authenticity of cell lines was confirmed at the DSMZ by STR (short tandem repeat) analysis, a PCR based DNA-fingerprinting methodology. Cell lines were routinely passaged once or twice weekly and maintained in culture for up to 20 passages. All cells were grown at 37° C. in a humidified atmosphere with 5% CO2 in RPMI 1640 medium (25 mM HEPES, with L-glutamine, #FG1385, Biochrom, Berlin, Germany) supplemented with 10% (v/v) fetal calf serum (Sigma, Taufkirchen, Germany) and 0.1 mg/mL gentamicin (Life Technologies, Karlsruhe, Germany).
The CellTiter-Blue® Cell Viability Assay (#G8081, Promega) was used according to manufacturer's instructions. Briefly, cells were harvested from exponential phase cultures, counted and plated in 96-well flat-bottom microtiter plates at a cell density of 6,000-20,000 cells/well depending on the cell line's growth rate. […] Following an incubation period of up to four hours, fluorescence (FU) was measured by using the Enspire Multimode Plate Reader (excitation λ=531 nm, emission λ=615 nm). […]

With `CC(=O)N=c1sc(S(N)(=O)=O)nn1C` [Methazolamide, N-[5-(aminosulfonyl)-3-methyl-1,3,4-thiadiazol-2(3H)-ylidene]acetamide], the “difference between the most sensitive and most resistant cell line” value is 7.4 fold.
